Results from PMC3361267 (Journal of Medicinal Chemistry, 2012).

The chains behind the UniProt entries cited, without tags or fusion partners. Where a name states a change or a piece, a line headed by the entry shows the natural chain unless it says otherwise.
UniProt Q9NPD5: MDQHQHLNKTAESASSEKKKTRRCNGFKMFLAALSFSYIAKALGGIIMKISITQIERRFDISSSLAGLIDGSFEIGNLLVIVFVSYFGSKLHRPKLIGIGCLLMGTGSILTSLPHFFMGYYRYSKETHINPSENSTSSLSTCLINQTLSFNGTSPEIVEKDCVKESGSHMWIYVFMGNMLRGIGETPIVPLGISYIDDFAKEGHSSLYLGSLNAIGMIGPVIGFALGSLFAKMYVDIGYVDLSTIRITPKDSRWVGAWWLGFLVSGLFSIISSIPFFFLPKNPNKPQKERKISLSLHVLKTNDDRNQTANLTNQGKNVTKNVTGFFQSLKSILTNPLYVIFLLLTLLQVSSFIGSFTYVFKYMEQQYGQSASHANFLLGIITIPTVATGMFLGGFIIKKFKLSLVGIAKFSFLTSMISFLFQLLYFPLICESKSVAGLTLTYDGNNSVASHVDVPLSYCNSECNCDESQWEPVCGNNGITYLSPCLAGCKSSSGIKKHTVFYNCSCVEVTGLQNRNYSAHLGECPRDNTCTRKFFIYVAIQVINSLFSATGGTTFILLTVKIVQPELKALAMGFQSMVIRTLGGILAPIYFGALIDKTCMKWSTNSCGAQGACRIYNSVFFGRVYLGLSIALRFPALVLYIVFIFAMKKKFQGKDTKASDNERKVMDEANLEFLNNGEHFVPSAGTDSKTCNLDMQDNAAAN

Target: OATP1B3 (Homo sapiens, UniProt Q9NPD5)

For Olmesartan, which “OATP1B3 Inhib %” value is on record?
Its value is 37.0%.
